From publication PMC5785997, “2-Phenylquinazolinones as dual-activity tankyrase-kinase inhibitors” (Scientific Reports, 2018) come the findings set out here.

The chains behind the UniProt entries cited, without tags or fusion partners. Residues count along the entry.
UniProt Q9H2K2, 959-1164: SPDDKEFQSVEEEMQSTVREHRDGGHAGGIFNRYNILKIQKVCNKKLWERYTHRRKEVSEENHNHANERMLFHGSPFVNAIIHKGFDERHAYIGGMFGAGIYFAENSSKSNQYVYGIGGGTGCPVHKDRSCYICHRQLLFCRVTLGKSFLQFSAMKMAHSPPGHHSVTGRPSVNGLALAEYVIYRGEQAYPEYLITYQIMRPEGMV

“And” between values parts separate entries of the source, which are not always exact repeats. Equal entries are not always repeated. Where two headings read alike, the source gives them in different places.

The experiment concerns the target TNKS2 (Homo sapiens, UniProt Q9H2K2). Briefly: NAD+ quantification activity assay, TNKS2. It is filed as biochemical. The protocol: The activity assay used to measure the potency of the compounds against TNKS2 is based on the quantification of NAD^+[38]. The reactions were carried out in 96-well plate (Greiner bio-one, U-shaped) and the conditions were the same as reported earlier (Table S5)[24].
The compounds were stored in 100% DMSO at −20 °C. All the compounds were diluted in the TNKS2 assay buffer (50 mM Bis-Tris Propane, 0.5 mM TCEP, 0.01% Triton-100x). Control reactions were used to exclude the effect of compound fluorescence and quenching from the calculations. […] The pIC50 values were calculated and fitted with nonlinear regression using 4-parameters with GraphPad Prism (version 5.0 for windows).
Protein (nM) NAD+ (nM) Incubation Buffer
Kinase [ATP] Substrate Incubation Reaction buffer

`Nc1ccc(-c2nc3ccccc3c(=O)[nH]2)cc1` [C00007]: the IC50 – broadly, the concentration at which inhibition is half-maximal – (Table 1, read-out: TNKS2 IC50 (shown for comparison)) was 145 nM.
Consider `Nc1ccc(-c2nc3ccccc3c(=O)[nH]2)cc1` [Compound 28], for which the IC50 (TNKS2 IC50, NAD+ 500 nM) was 145 nM and 70 nM.
